Data published in PubChem BioAssay AID651819 (National Center for Advancing Translational Sciences (NCATS), 2012).
The entries are a selection whose mix differs from that of the whole data set. The source made the active and inactive calls. Cut-off read from the data, not from the text of the source: active = activity change below about -30%; inactive = the rest.

tested on: cytosolic chaperonin (CCT/TRiC complex); assay: High-Throughput Screening for Modulators of Cytosolic Chaperonin Activity; settings: purified chaperonin ATPase assay, HTRF ADP detection, 30 min; stronger effect = lower value
Excerpt: The eukaryotic chaperonin named TRiC (for TCP-1 ring complex), also called CCT (for chaperonin containing TCP1), is an essential and conserved chaperone required for the folding and activation of 10-15% of the proteins encoded by the human genome. […] Despite its central role in cellular folding, little is known about TRiC mechanism and mode of substrate binding. Currently, no specific TRiC inhibitors are available. Given the early promise of other chaperone-directed inhibitors as cancer therapeutics (e.g. HSP90 inhibitors), inhibitors of TRiC activity may also selectively target transformed cells and have potential use as therapeutics for cancer.
To this end, a miniaturized assay was developed to screen against the Molecular Libraries Small Molecule Repository (MLSMR).
NIH Chemical Genomics Center [NCGC]
NIH Molecular Libraries Probe Centers Network [MLPCN]
Assay Submitter (PI): Judith Frydman, Stanford University
1.5 uL/well TRiC enzyme suspended in buffer (30 mM TRIS pH7.4, 100 mM KCl, 5 mM MgCl2, 1 mM DTT) was added with BioRAPTR FRD dispenser at 40 nM or 20 nM (based on the enzymatic activity of used batches) final concentration to a white solid bottom medium binding 1536-well plate (Greiner Bio-One, Monroe, NC), and quickly spanned down. 23 nl/well of compound solutions in DMSO were added with a pintool transfer (Kalypsis, San Diego, CA) at a single 76 uM final concentration. Next, 1.5 µl/well ATP was dispensed with BioraptR at 10 uM final concentration after which the plates were incubated at 37 deg C for 30 min. HTRF(R) Transcreener(R) ADP (Cisbio US, Bedford, MA) detection reagents were prepared accordingly to the protocol and dispensed into the plate (1.5 uL/well each), incubated for 30 min at ambient temperature. Then, the plates were read using Envision reader with excitation at 330nm and emission at 615nm (Eu(3)-Cryptate donor signal) and 665nm (d2 acceptor signal). The ratio of […] was calculated for each well.
% is set by controls: 0 for no effect and ±100 for the full control effect.

Row | Structure (SMILES) | activity change
1 | CCN(CC)CCCOC(=O)C(O)(c1ccccc1)c1ccccc1 | inactive: 0.487%
2 | COc1ccccc1-c1ccccn1.O=[N+]([O-])c1cc([N+](=O)[O-])c(O)c([N+](=O)[O-])c1 | inactive: -0.739%
3 | Cc1cccc(C)c1OP(C)(N)=O (centres undefined) | inactive: -2.94%
4 | CC(C)(C)c1ccc(OP(C)(=O)Nc2ccc(SC(F)(F)F)cc2)cc1 (centres undefined) | inactive: -3.6%
5 | O=[N+]([O-])c1ccc2c(c1)C=Nc1ccccc1O2 | inactive: 3.25%
6 | O=[N+]([O-])c1cc([N+](=O)[O-])c(Nc2cccnc2)c([N+](=O)[O-])c1 | inactive: -1.16%
7 | COc1ccc(OP(C)(=O)Nc2cccc(F)c2)cc1 (centres undefined) | inactive: -0.101%
8 | COc1ccccc1OP(C)(=O)Nc1cc(Cl)ccc1C (centres undefined) | inactive: 0.311%
9 | Cc1cc(C)cc(OP(C)(N)=O)c1 (centres undefined) | inactive: 0.825%
10 | CCOC(=O)c1ccc(NP(C)(=O)Oc2ccccc2)cc1 (centres undefined) | inactive: 2.32%
11 | Cc1ccc(NP(C)(=O)Oc2ccccc2)c(C)c1 (centres undefined) | inactive: -2.04%
12 | COc1ccccc1OP(C)(=O)Nc1ccc(C)cc1 (centres undefined) | inactive: 0.574%
13 | COc1ccccc1OP(C)(=O)Nc1ccccc1 (centres undefined) | inactive: 0.851%
14 | CP(=O)(Nc1ccccc1Br)Oc1ccccc1 (centres undefined) | inactive: -4.31%
15 | CP(=S)(Nn1cnnc1)Oc1ccccc1 (centres undefined) | inactive: 1.03%
16 | Cc1cc(C)cc(OP(C)(=O)Nc2ccc(SC(F)(F)F)cc2)c1 (centres undefined) | inactive: -1.05%
17 | CCc1ccc(OP(C)(=O)N2CCN(c3ccc([N+](=O)[O-])cc3)CC2)cc1 (centres undefined) | inactive: -0.15%
18 | CP(=O)(NC(=O)Nc1ccccc1)Oc1ccccc1 (centres undefined) | inactive: -1.55%
19 | CP(=O)(Oc1ccccc1)OC(c1ccccc1)C(F)(F)F (centres undefined) | inactive: 2.23%
20 | Cc1cccc(C)c1OP(C)(=O)Nc1ccc(SC(F)(F)F)cc1 (centres undefined) | inactive: 0.484%
21 | CP(=O)(Nc1ccc(SC(F)(F)F)cc1)Oc1ccc(Cl)cc1 (centres undefined) | inactive: -1.17%
22 | CP(=O)(Nc1ccccn1)Oc1ccc(Cl)cc1 (centres undefined) | inactive: 3.25%
23 | CCOP(C)(=S)SCC(=O)NC(C)C(=O)O (centres undefined) | inactive: 1.91%

Row | Structure (SMILES) | activity change
24 | CCOC(=O)c1ccc(NP(C)(=O)Oc2ccc(OC)cc2)cc1 (centres undefined) | inactive: -1.04%
25 | O=[N+]([O-])c1cc([N+](=O)[O-])c(O)c([N+](=O)[O-])c1.c1ccc(Oc2ccncc2)cc1 | inactive: 0.0226%
26 | CN(Cc1cccnc1)C(=O)COc1ccc(Cl)c(Cl)c1.O=[N+]([O-])c1cc([N+](=O)[O-])c(O)c([N+](=O)[O-])c1 | inactive: -1.41%
27 | O=[N+]([O-])c1cc([N+](=O)[O-])c(-n2nnc3ccccc32)c([N+](=O)[O-])c1 | inactive: -1.84%
28 | Cc1nc2ccc3ccccc3c2s1.O=[N+]([O-])c1cc([N+](=O)[O-])c(O)c([N+](=O)[O-])c1 | inactive: -1.6%
29 | O=[N+]([O-])c1cc([N+](=O)[O-])c(-c2cnn(-c3ccccc3)c2)c([N+](=O)[O-])c1 | inactive: -0.933%
30 | O=[N+]([O-])c1cc([N+](=O)[O-])c(Nc2nnnn2CCO)c([N+](=O)[O-])c1 | inactive: -0.416%
31 | CC1=C2N=C(C=C3N=C(C(C)=C4[N-][C@@](C)([C@@H]5N=C1[C@](C)(CCC(=O)NC[C@@H](C)OP(=O)([O-])O[C@H]1[C@@H](O)[C@@H](n6cnc7cc(C)c(C)cc76)O[C@@H]1CO)[C@H]5CC(N)=O)[C@@](C)(CC(N)=O)[C@@H]4CCC(N)=O)[C@@](C)(CC(N)=O)[C@@H]3CCC(N)=O)C(C)(C)[C@@H]2CCC(N)=O.[C-]#N.[Co+3] | inactive: -2.4%
32 | CP(=O)(Nc1ccc(SC(F)(F)F)cc1)Oc1ccccc1 (centres undefined) | inactive: -1.2%
33 | CCCOc1ccc(NP(C)(=O)Oc2ccc(Cl)cc2)cc1 (centres undefined) | inactive: 1.41%
34 | COc1ccccc1OP(C)(=O)Nc1c(C)cccc1C (centres undefined) | inactive: 0.807%
35 | CN1CCCCC1COC(=O)C1(O)c2ccccc2CCc2ccccc21 (centres undefined) | inactive: 2.94%
36 | CC1=NCCc2c1[nH]c1ccccc21.O=[N+]([O-])c1cc([N+](=O)[O-])c(O)c([N+](=O)[O-])c1 | inactive: -2.26%
37 | Cc1cc(C)cc(OP(C)(=O)Nc2ccc(C)cc2C)c1 (centres undefined) | inactive: -0.945%
38 | CCOC(=O)c1ccc(NP(C)(=O)Oc2cc(C)cc(C)c2)cc1 (centres undefined) | inactive: -0.685%
39 | COc1ccccc1OP(C)(=O)Nc1cccc(Br)c1 (centres undefined) | inactive: 0.758%
40 | CP(=O)(Nc1cccc(Br)c1)Oc1ccccc1 (centres undefined) | inactive: -2.47%
41 | Cc1cc(C)cc(OP(C)(=O)Nc2ccccn2)c1 (centres undefined) | inactive: 1.53%
42 | Cc1ccc(C)c(NP(C)(=O)Oc2ccccc2)c1 (centres undefined) | inactive: 1.07%
43 | CC(C)c1ccc(OP(C)(=O)Nc2ccc(SC(F)(F)F)cc2)cc1 (centres undefined) | inactive: -1.64%
44 | CP(=O)(Nc1ccccc1F)Oc1ccccc1 (centres undefined) | inactive: -6.28%
45 | O=C(OCCN1CCN(CCOCc2ccccc2)CC1)C(O)(c1ccccc1)c1ccccc1 | inactive: -1.29%
46 | COc1ccc(OP(C)(=O)Nc2ccc(SC(F)(F)F)cc2)cc1 (centres undefined) | inactive: -1.84%

Row | Structure (SMILES) | activity change
47 | CCOC(=O)c1ccc(NP(C)(=O)Oc2ccc(F)cc2)cc1 (centres undefined) | inactive: -0.3%
48 | CCCCCOc1ccc(NP(C)(=O)Oc2ccc(Cl)cc2Cl)cc1 (centres undefined) | inactive: 2.21%
49 | CP(=O)(Nc1ccccc1)Oc1ccc(F)cc1 (centres undefined) | inactive: 1.46%
50 | CCN(CC)CCCOC(=O)C(O)(c1ccccc1)C1CCCCC1 (centres undefined) | inactive: -0.577%
51 | Cc1c([N+](=O)[O-])cc([N+](=O)[O-])c(Br)c1[N+](=O)[O-] | inactive: -28.2%
52 | COc1ccc(NP(C)(=O)Oc2ccccc2OC)cc1 (centres undefined) | inactive: -3.99%
53 | CN(C)CCOC(=O)C(O)(c1ccccc1)C1CCCCC1 (centres undefined) | inactive: -0.19%
54 | COc1ccc(OP(C)(=O)Nc2cccc(Br)c2)cc1 (centres undefined) | inactive: -1.52%
55 | Cc1c(C(c2ccc3c(c2)OCO3)c2c(C)n(C)n(-c3ccccc3)c2=O)c(=O)n(-c2ccccc2)n1C.O=[N+]([O-])c1cc([N+](=O)[O-])c(O)c([N+](=O)[O-])c1 | inactive: -0.549%
56 | Cc1cc(-c2cccc3ccccc23)c(C)cn1.O=[N+]([O-])c1cc([N+](=O)[O-])c(O)c([N+](=O)[O-])c1 | inactive: -4.7%
57 | O=[N+]([O-])c1ccc(OP2(=O)COCCO2)cc1 (centres undefined) | inactive: 0.17%
58 | CCOP(C)(=S)SCC(=O)NC(C)(CC)C(=O)O (centres undefined) | inactive: 1.63%
59 | CP(=O)(Nc1ccc(SC(F)(F)F)cc1)Oc1ccc(F)cc1 (centres undefined) | inactive: 1.03%
60 | O=[N+]([O-])c1cc([N+](=O)[O-])c(C(F)(F)F)c([N+](=O)[O-])c1O | inactive: -1.04%
61 | Cc1ccccc1NP(C)(=O)Nc1ccccc1C | inactive: -1.33%
62 | CP(=O)(Nc1ccc2c(c1)OCCO2)Oc1ccccc1 (centres undefined) | inactive: 0.733%
63 | CCc1ccc(OP(C)(=O)Nc2cccnc2)cc1 (centres undefined) | inactive: 0.487%
64 | CP(=O)(Oc1ccccc1)N1CCOC1=O (centres undefined) | inactive: -2.91%
65 | O=C(OCCCN1CCCC1)C(O)(c1ccccc1)C1CCCCC1 (centres undefined) | inactive: -0.927%
66 | COc1ccccc1OP(C)(=O)Nc1c(C)n(C)n(-c2ccccc2)c1=O (centres undefined) | inactive: -2.94%
67 | COc1ccc(OP(C)(=O)Nc2ccc(Br)cc2)cc1 (centres undefined) | inactive: -0.528%
68 | CCN(CC)CC(O)COC(=O)C(O)(c1ccccc1)C1CCCCC1 (centres undefined) | inactive: 0.548%
69 | CN(C)C(=O)c1c([N+](=O)[O-])cc([N+](=O)[O-])cc1[N+](=O)[O-] | inactive: 0.811%

Row | Structure (SMILES) | activity change
70 | CP(=O)(Nc1ccc(Cl)cc1)Oc1ccc(F)cc1 (centres undefined) | inactive: 0.724%
71 | CC(C)(C)c1ccc(OP(C)(=O)O)cc1 | inactive: 0.583%
72 | COc1ccccc1OP(C)(=O)Nc1ccccc1Br (centres undefined) | inactive: 1.47%
73 | CP(=O)(OC12CC3CC(CC(C3)C1)C2)OC12CC3CC(CC(C3)C1)C2 | inactive: -0.326%
74 | CCOC(=O)c1ccc(NP(C)(=O)Oc2ccc(Cl)cc2)cc1 (centres undefined) | inactive: 0.638%
75 | Nc1ccc2c(ccc3cccnc32)n1.O=[N+]([O-])c1cc([N+](=O)[O-])c(O)c([N+](=O)[O-])c1 | inactive: -2.51%
76 | COc1ccc(OP(C)(=O)Nc2ccccc2Br)cc1 (centres undefined) | inactive: 2.71%
77 | COc1ccccc1OP(C)(=O)Nc1ccc(C)c(C)c1 (centres undefined) | inactive: -0.534%
78 | Cc1cc(C)cc(OP(C)(=O)Nc2cccc(C(F)(F)F)c2)c1 (centres undefined) | inactive: 0.971%
79 | CP(=O)(OCCOc1ccccc1)OCCOc1ccccc1 | inactive: -2.51%
80 | CCCCCCCCCCCCCCCC1C[N+](C)(C)CCOP(C)(=O)O1 (centres undefined) | inactive: -3.9%
81 | CP(=O)(Nc1ccc(Cl)cc1Cl)Oc1ccccc1 (centres undefined) | inactive: 0.346%
82 | CN(C)CCOC(=O)C(O)(c1ccccc1)C1CCCC1 (centres undefined) | inactive: -1.2%
83 | COc1ccc(OP(C)(=O)Nc2ccccn2)cc1 (centres undefined) | inactive: -2.12%
84 | COc1ccccc1OP(C)(=O)Nc1ccc(Br)cc1 (centres undefined) | inactive: -0.547%
85 | CCc1ccc(OP(C)(=O)O)cc1 | inactive: 0.0386%
86 | COc1ccccc1OP(C)(=O)Nc1ccc(C)cc1C (centres undefined) | inactive: -1.9%
87 | CP(=O)(Nc1ccccn1)Oc1ccccc1 (centres undefined) | inactive: -1.09%
88 | O=[N+]([O-])c1cc([N+](=O)[O-])c(Nc2ccccn2)c([N+](=O)[O-])c1 | inactive: -5.89%
89 | Cc1c(NP(C)(=O)Oc2ccc(C(C)C)cc2)c(=O)n(-c2ccccc2)n1C (centres undefined) | inactive: -1.03%
